# AlphaSeq binding of Ab-14 heavy chain variants to a spike HR2 peptide

Data: MIT Lincoln Laboratory AlphaSeq set, Li et al. 2023, doi:10.1038/s41467-023-39022-2, as distributed in FLAb.

Antigen: PDVDLGDISGINAS, a 14-residue peptide of the SARS-CoV-2 spike HR2 region.

Ab-14 is the parent antibody, in scFv form: VH, then three GGGGS repeats, then VL. The light chain is unchanged in all variants.
VH: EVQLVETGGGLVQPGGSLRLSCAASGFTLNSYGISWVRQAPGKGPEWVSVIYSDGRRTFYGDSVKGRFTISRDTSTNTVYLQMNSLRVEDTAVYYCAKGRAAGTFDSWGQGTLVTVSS
VL: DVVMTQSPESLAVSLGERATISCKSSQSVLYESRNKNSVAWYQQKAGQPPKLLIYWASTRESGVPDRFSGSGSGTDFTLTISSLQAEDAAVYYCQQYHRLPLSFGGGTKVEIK

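The parent was found by panning a naive human phage display library on the peptide. These sequences belong to a second round, designed from the earlier measurements on random variants of the parent. Several design methods are mixed in this list. The assay is AlphaSeq: two haploid yeast populations carry antibody and antigen on their surface. After mating in shaken culture at 30 °C for 16 h, diploids were selected and their barcode pairs sequenced. Scores were corrected for input abundance and mapped to Kd with protein pairs of known affinity run in the same pool. Each pool was mated in six replicate cultures.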

Each variant's VH is given in full. Values are log10 of the apparent Kd in nM; lower means stronger binding. Replicates are averaged; those with no signal do not enter the mean. Where no diploid with the target was found in any replicate, the entry reads "not detected": below detection, most likely a poor binder, though not proof of it. A sequence that the file lists under several names has all its replicates pooled. Of ten entries with the parent sequence, four were seen in most replicates (averages 0.34 to 2.37), three in one and three in none, so single entries are noisy. The range of this assay differs from that of the first round, and the authors advise against merging the two. Empty control strains, which show no peptide, gave a signal in 1% of pairings with all heavy chain designs; the median was 2.08 and 95% of these signals were weaker than 0.84. No background was subtracted. For each scFv, signals with the empty controls are counted beside the result. The authors averaged sequences with at least three values out of six and counted those with two or fewer as poor binders.

VH | mean log10 Kd (nM) | detected | control signals
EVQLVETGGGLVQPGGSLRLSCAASGFQLNEYGISWVRQAPGKGPEWVSVIYSDGRRTFYSDSVKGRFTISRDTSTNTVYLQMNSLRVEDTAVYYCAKGRDAGTFDSWGQGTLVTVSS | 0.63 | 6/6 | 1/18
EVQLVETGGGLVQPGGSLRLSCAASGFDLNEYGISWVRQAPGKGPEWVSVIYADGMRTAYADSVKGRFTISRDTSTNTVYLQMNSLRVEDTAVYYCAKGNVAGTFDVWGQGTLVTVSS | 0.13 | 6/6 | 0/18
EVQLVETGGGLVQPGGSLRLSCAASGFDLNEYGISWVRQAPGKGPEWVSVIYADGQRTFYADSVKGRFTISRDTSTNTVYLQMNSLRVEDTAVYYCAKGQLAGTFDSWGQGTLVTVSS | -0.36 | 6/6 | 0/18
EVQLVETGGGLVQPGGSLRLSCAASGFTLNSYGISWVRQAPGKGPEWVSVIYSDGFRTFYQDSVKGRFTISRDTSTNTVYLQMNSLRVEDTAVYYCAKGRAAGTFISWGQGTLVTVSS | not detected | 0/6 | 0/18
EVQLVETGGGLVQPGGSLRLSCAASGFTLNDYGISWVRQAPGKGPEWVSVIYSDGRRTFYGDSVKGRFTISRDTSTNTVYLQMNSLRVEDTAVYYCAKGRFGGTFDSWGQGTLVTVSS | not detected | 0/6 | 0/18
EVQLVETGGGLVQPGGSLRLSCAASGFTLNEYGISWVRQAPGKGPEWVSVIYSDGRRTFYGDSVKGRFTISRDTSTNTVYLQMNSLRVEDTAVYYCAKGRIAGTFNSWGQGTLVTVSS | not detected | 0/6 | 0/18
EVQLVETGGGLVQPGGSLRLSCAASGFTLNSYGISWVRQAPGKGPEWVSVIYSDGRRTFYGDSVKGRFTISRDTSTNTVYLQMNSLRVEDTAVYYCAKGRTAGRFDSWGQGTLVTVSS | 1.89 | 2/6 | 1/18
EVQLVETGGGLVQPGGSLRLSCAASGFTLNSYGISWVRQAPGKGPEWVSVIYSDGMRTFYGDSVKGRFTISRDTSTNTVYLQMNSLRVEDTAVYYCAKGMAAGTFESWGQGTLVTVSS | not detected | 0/6 | 0/18
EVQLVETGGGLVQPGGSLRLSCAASGFWLNDYGISWVRQAPGKGPEWVSVIYSDGRRTFYADSVKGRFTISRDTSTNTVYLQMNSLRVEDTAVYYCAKGRTAGTFDEWGQGTLVTVSS | 0.95 | 5/6 | 0/18
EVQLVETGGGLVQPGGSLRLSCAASGFELNSYGISWVRQAPGKGPEWVSVIYSDGRRTFYDDSVKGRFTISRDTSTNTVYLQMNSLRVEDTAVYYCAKGKNAGTFDSWGQGTLVTVSS | not detected | 0/6 | 0/18
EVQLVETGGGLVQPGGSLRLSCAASMFDLNSYGISWVRQAPGKGPEWVSVIYSDGRRTAYGDSVKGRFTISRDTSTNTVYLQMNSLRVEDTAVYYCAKGRTAGTFDSWGQGTLVTVSS | -0.12 | 6/6 | 0/18
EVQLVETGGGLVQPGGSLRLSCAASGFDLNEYGISWVRQAPGKGPEWVSVIYADGRRTFYSDSVKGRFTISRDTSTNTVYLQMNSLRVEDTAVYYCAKGNVAGTFDKWGQGTLVTVSS | -0.66 | 6/6 | 0/18
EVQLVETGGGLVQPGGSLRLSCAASGFKLNSYGISWVRQAPGKGPEWVSVIYSDGRRTFYGDSVKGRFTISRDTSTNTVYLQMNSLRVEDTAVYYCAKGKNAGTFDSWGQGTLVTVSS | 2.21 | 2/6 | 0/18
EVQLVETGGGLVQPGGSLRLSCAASGFTLNEYGISWVRQAPGKGPEWVSVIYSDGRRTFYGDSVKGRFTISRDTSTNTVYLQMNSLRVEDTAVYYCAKGRHAGTFDTWGQGTLVTVSS | 1.00 | 6/6 | 0/18
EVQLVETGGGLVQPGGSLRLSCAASGFNLDEYGISWVRQAPGKGPEWVSVIYADGRRTFYSDNVKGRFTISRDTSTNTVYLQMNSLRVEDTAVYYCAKGEEAGTFDIWGQGTLVTVSS | -0.64 | 6/6 | 0/18
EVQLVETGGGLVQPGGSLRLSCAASGFSLNSYGISWVRQAPGKGPEWVSVIYSDGRRTFYVDNVKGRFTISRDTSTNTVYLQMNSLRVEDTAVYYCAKGRTAGTFDSWGQGTLVTVSS | 1.85 | 5/6 | 0/18
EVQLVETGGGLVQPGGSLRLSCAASSFALNDYGISWVRQAPGKGPEWVSVIYSDGRRTFYGDSVKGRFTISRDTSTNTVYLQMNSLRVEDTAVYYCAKGRQTGTFDSWGQGTLVTVSS | not detected | 0/6 | 0/18
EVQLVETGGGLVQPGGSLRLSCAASGFHLNSYGISWVRQAPGKGPEWVSVIYSDGRRTFYSDSVKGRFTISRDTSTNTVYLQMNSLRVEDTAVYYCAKGRQAGTFDSWGQGTLVTVSS | 1.05 | 5/6 | 1/18
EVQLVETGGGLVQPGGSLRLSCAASGFTLDSYGISWVRQAPGKGPEWVSVIYADGRRTFYGDSVKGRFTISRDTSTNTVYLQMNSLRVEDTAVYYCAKGRAAGTFDKWGQGTLVTVSS | 0.25 | 6/6 | 0/18
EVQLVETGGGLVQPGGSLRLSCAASGFDLNEYGISWVRQAPGKGPEWVSVIYADGMRTAYTDSVKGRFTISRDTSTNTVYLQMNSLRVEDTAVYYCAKGNIAGTFDVWGQGTLVTVSS | -0.52 | 6/6 | 0/18
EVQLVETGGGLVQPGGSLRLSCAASGFTLNSYGISWVRQAPGKGPEWVSVIYADGRRTFYGDDVKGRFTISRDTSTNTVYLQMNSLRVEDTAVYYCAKGRAAGTFDSWGQGTLVTVSS | -0.09 | 12/12 | 1/36
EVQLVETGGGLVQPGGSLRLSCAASGFTLNSYGISWVRQAPGKGPEWVSVIYSDGMRTFYGDSVKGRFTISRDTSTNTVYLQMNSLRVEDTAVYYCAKGWTAGTFWSWGQGTLVTVSS | 0.21 | 2/6 | 0/18

Picked from the list: the 2 lowest averages where every replicate gave a value.

| VH | mean log10 Kd (nM) | detected | control signals |
|---|---|---|---|
| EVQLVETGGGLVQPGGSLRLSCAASGFDLNEYGISWVRQAPGKGPEWVSVIYADGRRTFYSDSVKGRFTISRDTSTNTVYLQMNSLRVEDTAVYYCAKGNVAGTFDKWGQGTLVTVSS | -0.66 | 6/6 | 0/18 |
| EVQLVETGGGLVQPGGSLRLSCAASGFNLDEYGISWVRQAPGKGPEWVSVIYADGRRTFYSDNVKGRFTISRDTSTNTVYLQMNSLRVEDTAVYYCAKGEEAGTFDIWGQGTLVTVSS | -0.64 | 6/6 | 0/18 |